Data as given in ChEMBL document CHEMBL3887015, “Pyrazole substituted imidazopyrazines as casein kinase 1 d/e inhibitors” (2016).

Chains of the proteins cited; added tags and fusions are not shown. Lines headed by an entry give the natural chain unless they say otherwise; changes in a name come on top.
UniProt P49674: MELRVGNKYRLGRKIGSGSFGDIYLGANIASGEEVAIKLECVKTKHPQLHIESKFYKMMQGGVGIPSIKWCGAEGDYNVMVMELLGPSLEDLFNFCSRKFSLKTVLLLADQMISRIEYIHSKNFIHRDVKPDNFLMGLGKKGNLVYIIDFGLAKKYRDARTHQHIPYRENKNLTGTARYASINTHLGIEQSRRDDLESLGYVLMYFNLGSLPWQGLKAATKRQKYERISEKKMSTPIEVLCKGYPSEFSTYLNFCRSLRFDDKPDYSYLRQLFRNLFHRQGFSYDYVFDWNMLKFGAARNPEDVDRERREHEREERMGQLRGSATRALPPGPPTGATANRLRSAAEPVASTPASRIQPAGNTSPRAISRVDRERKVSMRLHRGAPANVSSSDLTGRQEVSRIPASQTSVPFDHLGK

Biological target: Casein kinase I isoform epsilon (Homo sapiens, UniProt P49674)
Assay: Kinase Assay: The kinase assay was performed in V-bottom 384-well plates. […] The reaction was incubated at room temperature for 22 hours and terminated by adding 45 ul of 35 mM EDTA to each sample. […] Compounds were dissolved at 10 mM in dimethylsulfoxide (DMSO) and evaluated at eleven concentrations. IC50 values were derived by non-linear regression analysis.

Row | IC50 [nM] | Compound
1 | 23.9 | Cn1cc(-c2ccc3nc(NC(=O)c4cncc(-c5ccc(C#N)cc5)c4)cn3n2)c(-c2ccc(F)cc2)n1
2 | 23.4 | Cn1cc(-c2ccc3nc(NC(=O)c4cscn4)cn3n2)c(-c2ccc(F)cc2)n1
